Tests used:
[1] = target: T1, CML100C (HDA3 complex subunit; CML100C-TF) (Cyanidioschyzon merolae, UniProt M1VD99); assay: UV-visible difference absorbance titration at […] nm, one-site fit; type: binding
T1 construct: gene CYME_CML100C

By UniProt entry, the sequences of proteins in these tests, tags left out. Residues count along the entry.
UniProt M1VD99, 1-561: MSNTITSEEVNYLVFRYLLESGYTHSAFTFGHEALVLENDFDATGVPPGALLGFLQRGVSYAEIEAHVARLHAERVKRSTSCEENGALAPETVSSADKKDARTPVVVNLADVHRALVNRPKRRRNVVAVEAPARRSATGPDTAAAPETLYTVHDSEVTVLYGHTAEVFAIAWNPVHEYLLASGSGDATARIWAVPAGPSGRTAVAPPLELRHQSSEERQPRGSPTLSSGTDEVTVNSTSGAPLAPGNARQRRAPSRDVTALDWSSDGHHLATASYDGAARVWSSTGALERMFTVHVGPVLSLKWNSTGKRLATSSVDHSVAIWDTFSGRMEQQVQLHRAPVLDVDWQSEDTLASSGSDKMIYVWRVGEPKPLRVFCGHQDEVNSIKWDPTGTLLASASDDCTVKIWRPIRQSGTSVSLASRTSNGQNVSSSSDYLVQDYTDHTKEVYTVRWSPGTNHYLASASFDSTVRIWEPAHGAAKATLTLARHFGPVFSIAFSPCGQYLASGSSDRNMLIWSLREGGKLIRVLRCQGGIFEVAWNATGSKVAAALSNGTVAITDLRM

[2] = target: T2, SRT1 (At5g55760), NAD-dependent protein deacetylase SRT1 (Arabidopsis thaliana, UniProt Q9FE17); assay: as above; type: binding
T2 construct: full-length cDNA in pET24, N-terminal His-tag kept, E. coli BL21(DE3), 52 kDa
T2 sequence (Q9FE17 1-473): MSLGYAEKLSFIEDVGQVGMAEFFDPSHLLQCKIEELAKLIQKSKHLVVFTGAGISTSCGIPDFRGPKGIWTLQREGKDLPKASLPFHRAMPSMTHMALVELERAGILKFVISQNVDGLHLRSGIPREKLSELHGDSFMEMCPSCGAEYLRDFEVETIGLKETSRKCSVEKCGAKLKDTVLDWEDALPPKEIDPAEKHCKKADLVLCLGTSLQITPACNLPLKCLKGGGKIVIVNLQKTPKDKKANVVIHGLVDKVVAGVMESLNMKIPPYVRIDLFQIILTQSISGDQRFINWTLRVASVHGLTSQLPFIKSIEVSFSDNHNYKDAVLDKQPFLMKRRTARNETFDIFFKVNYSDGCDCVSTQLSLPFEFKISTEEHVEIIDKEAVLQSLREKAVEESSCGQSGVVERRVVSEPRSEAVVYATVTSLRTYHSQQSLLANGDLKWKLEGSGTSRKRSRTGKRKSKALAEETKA

Q: What does the source list for `C=CC1=C(C)C2=Cc3c(C=C)c(C)c4[n]3[Fe]([Cl])[n]3c(c(C)c(CCC(=O)O)c3=CC3=NC(=C4)C(C)=C3CCC(=O)O)=CC1=N2` [haemin]?
A: Kd [1]: 1330 ± 250 nM; Kd [2]: 680 ± 400 nM
